# In US20170157260A1, “Glycosylated Polypeptide and Drug Composition Containing said Polypeptide” (Glytech, Inc., priority 2011, published 2017):
# Test system: growth hormone (GH) production
# Experiment: GH production suppression test with rats
# Type: in vivo
# Conditions: Table 8 (Example 87), dose 10 nmol/kg, vehicle 1012
substance,measurement,value
C(disialo)-R-K-SRIF14 [Example 18],GH,30 ng/mL
